# Yeast mating assay 1: variants of the scFv Ab-14

Values reported by Engelhart et al. 2022, doi:10.1038/s41597-022-01779-4 (FLAb copy).

Binding partner: SARS-CoV-2 spike HR2 peptide, sequence PDVDLGDISGINAS.

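The parent was found by panning a naive human phage display library on the peptide. Variants in AAYL50 differ from the parent at up to three CDR positions; double and triple changes were sampled at random. The scFvs were displayed on barcoded MATa yeast, the peptide on MATalpha yeast. The frequency of each diploid, read from paired DNA barcodes, reflects how well the two displayed proteins bind. The ratio of observed to expected reads was calibrated, replicate by replicate, on BCL2-family standards whose Kd was known from biolayer interferometry. The assay was run in three technical replicates.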

The variants keep the heavy chain, the linker and the frameworks of Ab-14 (scFv order VH, three GGGGS repeats, VL).
VH: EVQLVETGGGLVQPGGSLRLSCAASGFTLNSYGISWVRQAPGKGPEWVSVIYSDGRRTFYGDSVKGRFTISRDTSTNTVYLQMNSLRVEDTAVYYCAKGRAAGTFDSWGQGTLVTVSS
VL: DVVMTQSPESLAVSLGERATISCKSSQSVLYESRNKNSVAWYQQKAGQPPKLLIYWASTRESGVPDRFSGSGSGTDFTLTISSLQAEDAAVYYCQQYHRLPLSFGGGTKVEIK

Substitutions are numbered in sequence along the VL above, starting at 1 (not Kabat). Numbers give log10(Kd / nM), so 0 is 1 nM and 3 is 1 µM. Smaller is tighter. A mean of the replicates is given; it leaves out those without a signal. "n.d." marks a missing value. The strain was present, yet no cells mated with the target were sequenced in that replicate, which points to weak or no binding.

changes | log10 Kd, replicates | log10 Kd (nM), mean | signal with controls
Y31V/H98D/L100F | 0.56 0.67 0.46 | 0.56 | 0 of 9
S62I/R99I/L102T | 2.98 4.24 3.28 | 3.50 | 2 of 9 (4.57)
K24R/S25I/E32D | -0.33 0.04 -0.17 | -0.15 | 3 of 9 (4.11)
S28I/V29C/E61C | n.d. 2.58 n.d. | 2.58 | 0 of 9
Q27F/Y31E/T59K | 0.35 0.62 0.59 | 0.52 | 0 of 9
V39D/R60S/Q95L | n.d. n.d. n.d. | n.d. | 0 of 9
S25Q/N35Q/E61H | 0.22 0.43 0.27 | 0.30 | 0 of 9
K24D/R34E/S62Y | 2.28 3.04 5.02 | 3.45 | 3 of 9 (3.98)
Y31V/S62E | n.d. n.d. n.d. | n.d. | 0 of 9
S25C/L30I/S62Q | -0.24 0.51 0.07 | 0.11 | 0 of 9
S58V/S62D/L102D | n.d. n.d. n.d. | n.d. | 5 of 9 (4.54)
N37K/L100Y | 1.10 1.62 1.24 | 1.32 | 0 of 9
S25C/R60W/P101C | n.d. n.d. n.d. | n.d. | 1 of 9 (2.90)
V39T/E61K/L100T | n.d. n.d. n.d. | n.d. | 2 of 9 (3.67)
A57E/R60C | n.d. n.d. n.d. | n.d. | 0 of 9
K36N/A40E | 4.21 3.80 3.96 | 3.99 | 4 of 9 (3.89)
E61S/Q95C/L100E | 2.02 1.81 2.07 | 1.97 | 4 of 9 (4.68)
S28C/Y31D/L100H | 0.51 0.86 0.78 | 0.72 | 2 of 9 (4.53)
S28Q/N37L/S38Q | n.d. n.d. n.d. | n.d. | 1 of 9 (5.07)
S33R/N35P/E61M | 2.60 2.70 2.27 | 2.53 | 0 of 9
V29W/L30Y/P101R | 0.13 0.56 0.36 | 0.35 | 1 of 9 (4.10)
N35S/S38A/E61P | 1.29 1.44 1.26 | 1.33 | 3 of 9 (3.81)
S25L/L30W/V39I | 4.38 3.86 5.27 | 4.50 | 5 of 9 (4.26)
Q27A/K36V/N37C | 2.63 2.69 2.86 | 2.73 | 1 of 9 (3.05)
S25E/A40N/S103C | n.d. 3.56 n.d. | 3.56 | 2 of 9 (3.86)
K24N/T59M/E61W | 0.73 0.72 0.74 | 0.73 | 0 of 9
S38D/S62F/H98N | n.d. n.d. n.d. | n.d. | 0 of 9
S26I/N37W | 2.02 2.13 2.53 | 2.23 | 3 of 9 (4.29)
R99A | 0.56 1.03 1.17 | 0.92 | 0 of 9
V29S/A57R/S103W | 2.70 2.35 2.41 | 2.49 | 5 of 9 (4.38)
S26A/E61F/H98E | 1.43 1.32 1.28 | 1.34 | 2 of 9 (4.04)
W56F/E61M/S103C | 1.54 1.61 1.71 | 1.62 | 4 of 9 (4.59)
E32F/S103D | n.d. n.d. n.d. | n.d. | 1 of 9 (4.47)
S38D/W56S/T59Y | 0.09 0.42 0.22 | 0.24 | 3 of 9 (3.51)
S26P/Y31V/L100W | n.d. n.d. n.d. | n.d. | 2 of 9 (4.68)
S38M/S58I/R60V | n.d. n.d. n.d. | n.d. | 1 of 9 (4.54)
R34P/A57W/S103P | n.d. n.d. n.d. | n.d. | 0 of 9
K24N/E32P/Y97M | n.d. n.d. n.d. | n.d. | 1 of 9 (4.44)
S28N/W56I/L100T | n.d. n.d. n.d. | n.d. | 0 of 9
S58P/T59A/L100I | 4.42 3.85 n.d. | 4.14 | 1 of 9 (3.83)
S28Q/L30G/S38W | n.d. n.d. n.d. | n.d. | 0 of 9
S25I/Y31Q/S33F | -0.23 0.18 0.08 | 0.01 | 1 of 9 (4.73)
S28Y/S33Y/A57C | n.d. 3.34 n.d. | 3.34 | 1 of 9 (4.34)
W56V/S58N/Q96S | 3.47 3.74 4.20 | 3.80 | 4 of 9 (4.46)
S33R/V39I/S62E | 0.01 0.36 0.06 | 0.14 | 3 of 9 (4.28)

The first 5 entries again:

| changes | log10 Kd, replicates | log10 Kd (nM), mean | signal with controls |
|---|---|---|---|
| Y31V/H98D/L100F | 0.56 0.67 0.46 | 0.56 | 0 of 9 |
| S62I/R99I/L102T | 2.98 4.24 3.28 | 3.50 | 2 of 9 (4.57) |
| K24R/S25I/E32D | -0.33 0.04 -0.17 | -0.15 | 3 of 9 (4.11) |
| S28I/V29C/E61C | n.d. 2.58 n.d. | 2.58 | 0 of 9 |
| Q27F/Y31E/T59K | 0.35 0.62 0.59 | 0.52 | 0 of 9 |

Empty control strains, which show no peptide, gave a signal in 18% of pairings with library AAYL50; the median was 4.19 and 95% of these signals were weaker than 2.99. No background was subtracted. Also given: how often the same scFv was detected with the empty control strains, with their mean in brackets. For reference, the parent read 0.65 as the reference entry and 1.68 as a member of this library.